The results in this text go back to patent US9138407B2, “Inhalatory pharmaceutical compositions in form of dry powders, solutions or suspensions obtained from the same and process for their preparation” (Eratech S.R.L., priority 2005, dated 2015).

The data set in a line: Dimensional distribution of nebulized droplets by laser light scattering (Sympatec Helos). In kind it is physicochemical. The conditions noted are these: nebulizer M (mesh or piezoelectric); after first minute of continuous delivery. The procedure: has improved in relation to the droplet diameter of the nebulized product and/or to the dose delivered in a standard delivery time for a patient, correspondent to 5 minutes, we have dispersed in 2 ml of distilled water 40 mg of powder, produced according to example 4 later described, correspondent to a 240 μg dose of salbutamol, comparing it with an equivalent dose of salbutamol sulphate dissolved in 2 ml of distilled water.
The same formulation has been investigated measuring after the first minute of continuous delivery the dimensional distribution of the delivered droplets, by putting the device in front of a laser ray of a light scattering particle size analyzer, Sympatec Helos, provided of a R1 measuring lens for the range 0.1-35 μm.

salbutamol sulphate: the “X50 of delivered droplets” value came out at 10.17 μm.
